Structures are written as SMILES. This is a selection; strong and weak results do not stand in their true shares. The source made the active and inactive calls. Calls follow the shape of the dose curve; as a rule, active = well fitted activation curve with a large enough effect; inconclusive = small, poorly fitted or top-dose-only effect; inactive = no such curve, though single readings can be large or run the other way.

The assay is described as follows: qHTS Assay for Identifying a Potential Treatment of Ataxia-Telangiectasia. Also: % of control where 0% means no effect; nearly all actives have a fitted effect of over 45% in size. As to conditions: […] A-T fibroblasts, KAP-1 phosphorylation AlphaLISA, neocarzinostatin DNA damage 30 min before lysis; at 57.5 µM (top of the series) unless noted. The text has this: NIH Chemical Genomics Center [NCGC] NIH Molecular Libraries Probe Centers Network [MLPCN] MLPCN Grant: MH089030-01 Assay Submitter (PI): Wei Zheng and Yosef Shiloh Ataxia-telangiectasia (A-T) is a devastating and progressive disease for which, there is no cure. Although A-T is a multisystem disease, it is stereotyped characterized by its neurological symptoms such as truncal ataxia, due to cerebellar cortical degeneration of the Purkinje and granule cells. Other symptoms of A-T are telangiectasias (dilated blood vessels), primary immunodeficiency, marked sensitivity to ionizing radiation (IR), chromosomal instability and predisposition to cancer. The underlying genetic cause of A-T is null mutations in the ATM (A-T mutated) gene. ATM is a nuclear serine/threonine kinase that functions as a master regulator of the cellular responses to double strand breaks (DSBs) in the DNA. Upon activation by DSBs, ATM phosphorylates a plethora of down stream targets, including KAP-1 on […]. KAP-1 phosphorylation occurs shortly in response to DSBs and mediates global chromatin relaxation, which facilitates DSB repair. To screen for small molecules that will compensate for the loss of ATM in cells derived from A-T patients, we monitored KAP-1 phosphorylation as a readout for ATM-like activity using an AlphaLISA assay.
qHTS Assay Protocol: Step,Parameter,Value,Description 1. Cell Plating, 3 ul, 500 cells/well in OPTI-MEM, 1% FBS, 1% Pen/Strep 2. Incubation, 16-24 hr, 37C, 5% CO2, 95% humidity 3. Library compounds, 23 nl, 76.7 - 0.61uM dilution series final concentration 4. Incubation, 60 min, 37C, 5% CO2, 95% humidity 5. Reagent, 1 ul, 1600 ng/ml NCS in PBS + 0.05% BSA + 0.005% Tween 20 6. Incubation, 30 min, 37C, 5% CO2, 95% humidity 7. Reagent, 1 ul, Premixed detection reagents and lysis buffer 8. Reagent, 1 ul, 0.6% Antifoam A 9. Incubation, 6 hr, 25C, 95% humidity 10. Readout, EnVision, EnVision plate reader. AlphaScreen 1536-well protocol Cells were plated using medium-binding white solid-bottom tissue culture treated Kalypsys plates. Multidrop dispense of 3 uL of […] (hTERT immortalized A-T patient fibroblast cells). Detection reagent and lysis buffer was 3.75nM Rab-a-pKAP1 antibody bound to 75 ng/ul AlphaScreen SA donor bead, 3.75 nM Biot-M-a-KAP1 antibody bound to AlphaLISA protein A acceptor bead, 0.5x protease inhibitor cocktail and 0.25x PerkinElmer lysis buffer. EnVision protocol for 1536-well AlphaScreen read (30ms excitation, 100ms read), about 10 min/plate.
Background: In qHTS, concentration-response curves come from the screen itself.
As for `CC(C)(C)C(=O)NC(Sc1ccccc1)C(Cl)(Cl)Cl` (centres undefined), the activation is inactive: 4.86%. For the molecule `O=P1(Nc2nc3ccc(Cl)cc3s2)COc2ccccc2O1` (centres undefined), the activation is inactive: -2.25%. With `CCOc1ccc(C2=NCC(CBr)S2)cc1` (centres undefined), the activation is inactive: 0.513%.

Consider `CC(=O)Nc1ccc([As](=O)(O)O)c(O)c1`, for which the activation was inactive: -0.561%. The result for `CC(=O)Nc1ccc(Oc2c([N+](=O)[O-])cc([N+](=O)[O-])cc2[N+](=O)[O-])cc1` reads inactive: -12.9%. For the molecule `Cc1ccccc1CN(C)C(=O)COC(=O)C(O)(c1ccccc1)c1ccccc1`, the activation is inactive: 7.37%. Consider `C[C@H]1OP(=O)(Oc2ccccc2)C[C@@H]2O[C@@H]21` (some centres undefined), for which the activation was inactive: 24.3%. With `C[C@@H]1C=CCP(=O)(Oc2ccccc2)O1` (some centres undefined) the figure was inactive: -21.6%; with `CC(=O)c1ccc(N2CC2c2ccncc2)cc1` (centres undefined), inactive: 2.94%; with `c1ccc(-c2nn[nH]n2)c(-c2nn[nH]n2)c1`, inactive: 12.8%.

Regarding `Cc1ccc(NP(=O)(Oc2cccc(C)c2)Oc2cccc(C)c2)nc1`, the activation is inactive: -3.85%. As for `CCOC(=O)NC(Sc1ccccc1)C(Cl)(Cl)Cl` (centres undefined), the activation was inactive: -4.44%. In the case of `O=C(NC1CCS(=O)(=O)C1)NP(=S)(Oc1ccccc1)Oc1ccccc1` (centres undefined), the activation was inactive: 1.98%. The result for `CCNC(=S)/N=C(\N)N[N+](=O)[O-]` reads inactive: 5%; that for `CC(NC(=O)COC(=O)C(O)(c1ccccc1)c1ccccc1)c1ccccc1` (centres undefined), inactive: 9.58%; that for `Cc1ccccc1OP(=O)(Nc1ccccn1)Oc1ccccc1C`, inactive: 15.4%. For the molecule `O=c1c2cc([N+](=O)[O-])ccc2[nH]c2c([N+](=O)[O-])cc([N+](=O)[O-])cc12`, the activation is inactive: 1.22%.

`CN(C)C(=O)Oc1noc2ccccc12`: the activation was inactive: 3.51%. Consider `O=C(OC1CN2CCC1CC2)c1ccccc1` (centres undefined), for which the activation was inactive: 3.51%. As to `CCC(=O)N1C2C3N(C(=O)CC)C1C1N(C(=O)CC)C(C(N1C(=O)CC)N3C(=O)CC)N2C(=O)CC`, the activation was inactive: 3.61%. The result for `COC(=O)c1cc2c(s1)N=C(c1ccccc1)N(C)P2(=O)N1CCOCC1` (centres undefined) reads inactive: -2.68%; that for `CC(=O)NC(SC(=S)N(CC(C)C)CC(C)C)C(Cl)(Cl)Cl` (centres undefined), inactive: -2.67%; that for `Cc1ccc(OP(=O)(Nc2ccccn2)Oc2ccc(C)cc2)cc1`, inactive: 2.74%.

For the molecule `O=P(Nc1nc2ccccc2s1)(c1ccccc1)c1ccccc1`, the activation is inactive: -3.75%.

Consider `C[C@H]1OP(=O)(Oc2ccccc2)[C@H](O)[C@H](O)[C@H]1N=[N+]=[N-]` (some centres undefined), for which the activation is inactive: -18.9%. With `CN(C)C1(CNC(=O)c2ccc(Cl)c(S(N)(=O)=O)c2)CCCCC1` the figure was inactive: -11.2%; with `O=P(Nc1ccccn1)(c1ccc(Br)cc1)c1ccc(Br)cc1`, inactive: -0.108%. With `O=C(OC1CN2CCC1CC2)c1cccc(Cl)c1` (centres undefined) the figure was inactive: -0.744%; with `C(Cc1nn[nH]n1)Cc1nn[nH]n1`, inactive: -1.95%; with `Nc1ccc([As](=O)(O)c2ccc([N+](=O)[O-])cc2)cc1`, inactive: 1.56%. The result for `O=[As](O)(c1ccccc1)c1ccc(O)cc1` reads inactive: 2.25%. Take `CC(=O)NC(SC(=S)N(C)C)C(Cl)(Cl)Cl` (centres undefined): the activation is inactive: -0.771%. The result for `O=[N+]([O-])c1ncn(CCn2cnc([N+](=O)[O-])n2)n1` reads inactive: 2.3%.

`O=[N+]([O-])c1ccc(O)c(/C=N/Nc2ccc([N+](=O)[O-])cc2[N+](=O)[O-])c1`: the activation is inactive: -1.26%. Consider `c1nnnn1CCn1cnnn1`, for which the activation was inactive: 2.53%. With `O=P(Nc1nccs1)(c1ccccc1)c1ccccc1` the figure was inactive: 3.26%.

`CC(C)C(=O)NC(Sc1ccccc1)C(Cl)(Cl)Cl` (centres undefined): the activation was inactive: 6.78%. With `Cc1ccc(NP(=O)(Oc2ccccc2)Oc2ccccc2)nc1` the figure was inactive: 0.834%; with `O=[N+]([O-])c1cc([N+](=O)[O-])c(CCNc2ccccc2)c([N+](=O)[O-])c1`, inactive: -4.72%; with `CCc1nc2c(n1)c1c(non1O)c1c2no[n+]1[O-]`, inactive: -7.69%. Regarding `CC(=O)N1C2C3N(C(C)=O)C1C1N(C(C)=O)C(C(N1C(C)=O)N3C(C)=O)N2C(C)=O`, the activation is inactive: -4.09%. Regarding `O=[N+]([O-])c1cccc2n[nH]nc12`, the activation is inactive: 1.32%. The result for `COc1ccc(C2=NCC(CBr)S2)cc1` (centres undefined) reads inactive: 3.95%; that for `CC1CCN(C(=O)Oc2c(Cl)cc(Cl)c3cccnc23)CC1`, inactive: 2.94%. With `CC(C)=N/N=C(\N)N[N+](=O)[O-]`, the activation is inactive: 2.21%. With `CN(C)C(=O)OCCc1n(C)cc[n+]1C`, the activation was inactive: 13.3%. With `CCN(/C(=N/P(=O)(N1CCOCC1)N1CCOCC1)N1CCOCC1)c1ccc(OC)cc1`, the activation was inactive: -3.43%. With `Nc1ccc([As](=O)(O)c2ccc(N)cc2)cc1` the figure was inactive: -4%; with `C[N+]1=C2C=CC=CC=C2SC12C([N+](=O)[O-])=CC([N+](=O)[O-])=C[C-]2[N+](=O)[O-]` (centres undefined), inactive: -3.03%. The result for `O=C(Nc1cc([As](=O)(O)O)ccc1O)c1ccccc1` reads inactive: 3.92%; that for `O=C(O)CNc1ccc([As](=O)(O)O)cc1`, inactive: -5.12%; that for `O=[N+]([O-])c1cccc(NC2=NCC(CBr)S2)c1` (centres undefined), inactive: 35.1%. With `O=[N+]([O-])c1ncn(CCn2ncnc2[N+](=O)[O-])n1` the figure was inactive: 2.94%. Turning to `CC(C)(C)C(=O)NC(Sc1ccncn1)C(Cl)(Cl)Cl` (centres undefined), the activation was inactive: 4.55%. As to `Cc1cc(SC(NC(=O)c2ccc(F)cc2)C(Cl)(Cl)Cl)ncn1` (centres undefined), the activation was inactive: -1.83%. With `CCOP(=O)(Nc1ccccc1)OCC` the figure was inactive: 6.94%; with `Cc1ccc(NP(=O)(Oc2ccccc2F)Oc2ccccc2F)nc1`, inactive: 31.6%.

As to `O=P(Nc1nc2ccc(Cl)cc2s1)(c1ccccc1)c1ccccc1`, the activation was inactive: -1.79%.

Turning to `CC(=O)Nc1ccc([As](=O)(O)O)cc1`, the activation is inactive: -0.636%. With `O=C(O)c1ccccc1[As](=O)(O)O` the figure was inactive: -4.65%; with `Nc1cccc2ccc([As](=O)(O)O)cc12`, inactive: -4.85%; with `CCN(N=Nc1nonc1N)c1nonc1N`, inactive: -3.84%. `O=[N+]([O-])c1cc([N+](=O)[O-])c(CCN2CCOCC2)c([N+](=O)[O-])c1`: the activation was inactive: -20%. `Clc1ccc(Cl)c(NC2=NCC(CBr)S2)c1` (centres undefined): the activation was inactive: 1.62%. Regarding `COc1ccccc1OP(=O)(Nc1ccc(C)cn1)Oc1ccccc1OC`, the activation was inactive: -0.589% [at 11.5 µM]. With `Cc1ccc(OP(=O)(Nc2nccs2)Oc2ccc(C)cc2)cc1` the figure was inactive: 11.5%; with `CN(C(=O)Cc1ccc(Cl)c(Cl)c1)[C@H]1CCCC[C@H]1N1CCCC1`, inactive: -0.947%; with `Cc1ccc(N/C(=N/P(=O)(N2CCOCC2)N2CCOCC2)N2CCOCC2)cc1`, inactive: 9.21%.

For `NC(=O)c1cc([N+](=O)[O-])cc([N+](=O)[O-])c1N`, the activation is inactive: -1.3%.

`Oc1ccccc1CNc1ccccn1`: the activation is inactive: 0.93%. The result for `O=C(NC(Sc1ccncn1)C(Cl)(Cl)Cl)c1ccccc1` (centres undefined) reads inactive: 1.34%; that for `Nc1cc(N)c2nonc2c1[N+](=O)[O-]`, inactive: 6.06%; that for `CC(C)CC(=O)NC(Sc1ccc(Cl)cc1)C(Cl)(Cl)Cl` (centres undefined), inactive: -3.32%.

`COc1ccc2nc(NP(=O)(c3ccccc3)c3ccccc3)sc2c1`: the activation is inactive: 11.8%. With `COc1cc(I)ccc1[As](=O)(O)O` the figure was inactive: -4.36%; with `Cc1c2c(nc3ccccc13)SC(C(Cl)Cl)C2` (centres undefined), inactive: 5.94%.

As to `O=C(OC1CN2CCC1CC2)C12CC3CC(CC(C3)C1)C2` (centres undefined), the activation was inactive: 4.42%. With `Cc1cc(=O)[nH]c(N[N+](=O)[O-])n1` the figure was inactive: 1.3%; with `COc1ccc(N/C(=N/P(=O)(N2CCOCC2)N2CCOCC2)N2CCOCC2)cc1`, inactive: -2.51%. On to `Cc1ccc(OP(=O)(Nc2ccc([N+](=O)[O-])cn2)Oc2ccc(C)cc2)cc1`, for which the activation is inactive: -5.45%. With `Cc1ccc2nc3c(c(C)c2c1)CC(C(Cl)Cl)S3` (centres undefined), the activation was inactive: 1.32%. The result for `O=[As](O)(c1ccc(O)cc1)c1ccccc1O` reads inactive: -1.79%. `C[As](=O)(O)c1cccc(C(=O)O)c1`: the activation was inactive: 6.62%. In the case of `COc1cc(C(=O)NCC2(N3CCOCC3)CCCCC2)ccc1OCC(C)C`, the activation was inactive: -1.6%. With `CC(C)NC(=O)NP(=O)(Oc1ccccc1)Oc1ccccc1` the figure was inactive: -0.897%; with `CCN(CC)C(=S)SC(NC=O)C(Cl)(Cl)Cl` (centres undefined), inactive: 4.21%; with `O=[N+]([O-])c1cc([N+](=O)[O-])c(-c2ccn[nH]2)s1`, inactive: 2.76%. For `ClCCSc1nnc(-c2cccnc2)o1`, the activation is inactive: 2.31%.

For the molecule `CC(C)c1ccc(OP(=O)(Nc2ccccn2)Oc2ccccc2F)cc1` (centres undefined), the activation is inactive: -1.35%. Regarding `CCCCOc1ccc(C(=O)NCC2(N3CCCCC3)CCCCC2)cc1OC`, the activation is inactive: -1.18%. As for `Cc1cc(SC(NC(=O)c2ccccc2)C(Cl)(Cl)Cl)nc(C(C)C)n1` (centres undefined), the activation was inactive: -0.575%.

`CCOC(=O)Nc1ccc([As](=O)(O)O)c(O)c1`: the activation was inactive: 7%. Take `Cc1cc(SC(NC=O)C(Cl)(Cl)Cl)ncn1` (centres undefined): the activation was inactive: -7.28%. For the molecule `O=P(Nc1ccccn1)(c1cccc2ccccc12)c1cccc2ccccc12`, the activation is inactive: 3.1%. With `O=[N+]([O-])c1ccc(Nc2ccc(Oc3ccc([N+](=O)[O-])cc3[N+](=O)[O-])cc2)c([N+](=O)[O-])c1` the figure was inactive: -5.03%; with `CCOC(=O)Nc1cccc([As](=O)(O)O)c1`, inactive: -1.67%. The result for `O=C(COc1ccccc1)OC1CN2CCC1CC2` (centres undefined) reads inactive: 4.47%. For the molecule `O=C(Nc1ccncc1[N+](=O)[O-])c1ccc([N+](=O)[O-])cc1[N+](=O)[O-]`, the activation was inactive: -14.3%. The result for `COP1(=S)c2c(C)nn(CCC#N)c2N=C(c2ccc(F)cc2)N1C` (centres undefined) reads inactive: -3.4%.

The values above are taken from PubChem BioAssay AID485349 (National Center for Advancing Translational Sciences (NCATS), 2010).
